{
  "source": "paper PMC5928873",
  "about": "(Theranostics, 2018)",
  "test_system": "HUVEC",
  "test": "Tube formation assay",
  "type": "cell-based, human",
  "settings": "peptides pre-incubated 30 min, VEGF 10 ng/mL, Matrigel, 6 h",
  "data": [
    {"substance": "HSA: Recombinant human serum albumin", "values": [
      {"measurement": "tube formation of HUVEC cells induced by VEGF (total tube length)", "result": "no inhibitory effect"}
    ]}
  ]
}
